Protein sequences, listed by entry. Tags and fused reporters are not part of them.
UniProt Q5BJF2, whole entry: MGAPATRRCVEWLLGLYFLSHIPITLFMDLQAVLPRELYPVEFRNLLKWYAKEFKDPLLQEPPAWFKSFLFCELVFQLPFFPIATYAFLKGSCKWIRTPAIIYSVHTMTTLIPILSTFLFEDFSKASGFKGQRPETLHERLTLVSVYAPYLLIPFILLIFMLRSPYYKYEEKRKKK

In PMC7280195, “Simple ammonium salts acting on sigma-1 receptors yield potential treatments for cancer and depression” (Scientific Reports, 2020):

Biological target: sigma-2 receptor (Homo sapiens, UniProt Q5BJF2)
Assay: Sigma-2 receptor competition binding, [3H] DTG, membranes from MCF7 cells
Settings: competition with [3H] DTG; for σ-2 R affinity pKi ± SEM (n): * = Hill slope not unity; for pKi: read-out: σ-2 R affinity Ki
[1] = tested form: ammonium salt (counterion not stated)

Question: Which results are given for `CCCCN(CCCC)CCCC`?
Answer: σ-2 R affinity pKi ± SEM (n) [1]: 5.5 ); pKi [1]: 5.52

Question: Which σ-2 R affinity pKi ± SEM (n) (tested form: HCl) does the source give for `NC12CC3CC(CC(C3)C1)C2` here?
Answer: Its σ-2 R affinity pKi ± SEM (n) is 5.04 ).

Question: What about the pKi (tested form: HCl) of the same compound?
Answer: The pKi was 5.04.

Question: `C[N+](C)(C)C` was tested. Which “σ-2 R affinity pKi ± SEM (n)” value did it give?
Answer: Its value is <3 (3).

pKi: −log10 of the molar value. Like-named read-outs stand apart in the source and are kept apart here.
